{
  "sequences": {"note": "Protein sequences, listed by entry. Tags and fused reporters are not part of them. Residues count along the entry.", "UniProt P43220, 24-463": "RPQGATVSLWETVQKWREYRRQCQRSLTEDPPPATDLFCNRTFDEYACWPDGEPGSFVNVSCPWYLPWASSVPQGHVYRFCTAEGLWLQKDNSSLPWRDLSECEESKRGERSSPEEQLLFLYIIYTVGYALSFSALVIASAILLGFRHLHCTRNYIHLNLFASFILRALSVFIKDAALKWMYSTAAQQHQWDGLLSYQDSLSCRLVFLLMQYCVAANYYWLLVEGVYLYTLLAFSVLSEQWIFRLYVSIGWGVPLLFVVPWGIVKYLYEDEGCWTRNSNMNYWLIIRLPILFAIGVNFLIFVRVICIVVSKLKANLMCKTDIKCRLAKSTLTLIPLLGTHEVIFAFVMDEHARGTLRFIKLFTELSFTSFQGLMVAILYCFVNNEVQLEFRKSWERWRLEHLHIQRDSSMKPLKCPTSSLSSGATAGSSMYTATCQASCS"},
  "source": "paper PMC11786100",
  "about": "“Chronic GIPR agonism results in pancreatic islet GIPR functional desensitisation” (Molecular Metabolism, 2025)",
  "key": {"SNAP-tagged human GLP-1R [1]": {"biological_target": "T1, SNAP-tagged human GLP-1R (Homo sapiens, UniProt P43220)", "T1 construct": "host or cells: AD-293", "test": "Internalisation and receptor surface expression assays in AD-293 cells", "format": "cell-based", "conditions": "10 nM"}, "SNAP-tagged human GLP-1R [2]": {"biological_target": "T1, SNAP-tagged human GLP-1R", "test": "β-arrestin-2 activation assay (Borealis sensor) in AD-293 cells", "format": "cell-based", "conditions": "10 nM, 30-minute stimulation, n = 5–6"}},
  "data": [
    {"substance": "GLP-1(7–36)·NH2", "values": [
      {"measurement": "receptor internalisation compared to vehicle", "setting": "SNAP-tagged human GLP-1R [1]; 1-hour treatment, n = 3–4", "value": "significantly increased both mouse and human GLP-1R internalisation"},
      {"measurement": "receptor internalisation (surface expression) compared to vehicle", "setting": "SNAP-tagged human GLP-1R [1]; 4-hours treatment, n = 7–8", "value": "significantly increased both mouse and human GLP-1R internalisation"},
      {"measurement": "β-arrestin-2 activation compared to vehicle control", "setting": "SNAP-tagged human GLP-1R [2]", "value": "significant β-arrestin-2 activation"}
    ]}
  ]
}
